Experiments:
[1] = biological target: Synaptotagmin 1, endogenous in mouse neurons and mouse brain (mouse (endogenous in primary neurons and brain)) (UniProt P46096); experiment: not stated; unpublished data on mouse brain (normal aging; 9 month old Tg2576 mice)
[2] = biological target: Synaptotagmin 1, endogenous in mouse neurons and mouse brain (mouse (endogenous in primary neurons and brain)) (UniProt P46096); experiment: FRET or BRET; antibody-based FLIM on fixed primary neurons (anti-PS1 NT and anti-Syt1) after 15 min 50 mM KCl; pre-treated 2 h with 5 μM scramble or PS1-LNT peptide

Substance: Presenilin 1, endogenous in mouse neurons and mouse brain (from UniProt P49769 1-467) (natural protein)
- decrease in the PS1-Syt1 interaction in 9 month old Tg2576 AD mice [1]: 30%
- increase of the relative FRET efficiency (PS1-Syt1 proximity) by KCl against no KCl, scramble peptide pre-treated cells [2]: 29.5%
